Assay results: US9751885B2, “Cyclopropanamine compound and use thereof” (Takeda Pharmaceutical Company Limited, priority 2012, dated 2017)
pIC50: −log10 of the molar value. Structures can show the parent of a compound that is named as a salt.

By UniProt entry, the sequences of proteins in these tests, tags left out.
UniProt P27338, whole entry: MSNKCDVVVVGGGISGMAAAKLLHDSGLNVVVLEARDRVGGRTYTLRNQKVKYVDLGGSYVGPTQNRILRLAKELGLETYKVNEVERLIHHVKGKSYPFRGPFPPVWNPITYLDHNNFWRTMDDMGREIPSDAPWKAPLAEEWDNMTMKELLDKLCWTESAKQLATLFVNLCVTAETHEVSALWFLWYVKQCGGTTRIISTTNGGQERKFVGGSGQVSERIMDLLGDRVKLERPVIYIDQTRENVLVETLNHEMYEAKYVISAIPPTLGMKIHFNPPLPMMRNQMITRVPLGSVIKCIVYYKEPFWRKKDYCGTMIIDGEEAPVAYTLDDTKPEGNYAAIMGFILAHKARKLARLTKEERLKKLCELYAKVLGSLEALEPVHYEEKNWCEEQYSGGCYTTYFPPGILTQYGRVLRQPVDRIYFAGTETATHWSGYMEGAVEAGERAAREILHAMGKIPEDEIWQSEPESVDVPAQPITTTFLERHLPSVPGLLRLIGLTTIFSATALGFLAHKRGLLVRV
UniProt P21397, whole entry: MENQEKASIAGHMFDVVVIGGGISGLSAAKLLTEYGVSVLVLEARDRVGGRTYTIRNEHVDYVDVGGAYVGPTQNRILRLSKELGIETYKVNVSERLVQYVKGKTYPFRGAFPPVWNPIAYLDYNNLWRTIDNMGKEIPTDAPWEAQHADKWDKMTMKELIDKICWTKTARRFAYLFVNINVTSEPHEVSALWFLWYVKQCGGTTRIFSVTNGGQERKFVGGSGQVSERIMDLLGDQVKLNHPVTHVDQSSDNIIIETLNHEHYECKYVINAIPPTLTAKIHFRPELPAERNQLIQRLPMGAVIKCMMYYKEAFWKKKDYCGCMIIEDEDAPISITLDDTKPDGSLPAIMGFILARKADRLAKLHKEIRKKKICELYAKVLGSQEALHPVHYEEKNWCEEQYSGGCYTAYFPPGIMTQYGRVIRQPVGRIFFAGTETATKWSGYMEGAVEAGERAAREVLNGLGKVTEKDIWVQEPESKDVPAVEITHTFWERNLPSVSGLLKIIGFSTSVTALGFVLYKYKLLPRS

How the values were obtained:
[1] = target: MAO-B enzyme (Homo sapiens (Human), UniProt P27338); test: Measurement of MAO-B inhibitory activity (MAO-Glo Assay); details: read-out: MAO-B IC50 value;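 further: luminescence read-out, compound preincubated 10 min with enzyme then reacted 60 min at room temperature, inhibition relative to enzyme reaction without compound, blank lacking enzyme and compound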
[2] = target: MAO-A enzyme (Homo sapiens (Human), UniProt P21397); test: Measurement of MAO-A inhibitory activity (MAO-Glo Assay); assay type: biochemical

SMILES	pIC50 [1]	pIC50 [2]
CC(C)(C)CN[C@@H]1C[C@H]1c1cccc(C(=O)NC2CCS(=O)(=O)CC2)c1 (relative stereo) [Example 85, 3-(trans-2-((2,2-dimethylpropyl)amino)cyclopropyl)-N-(1,1-dioxidotetrahydro-2H-thiopyran-4-yl)benzamide hydrochloride]	< 5.00	< 5.00
N[C@@H]1C[C@H]1c1cccc(C(=O)Nc2ccccc2)c1 (relative stereo) [Example 11, 3-(trans-2-aminocyclopropyl)-N-phenylbenzamide hydrochloride]	< 5.00	5.23
CC(C)(C)n1cc(NC(=O)c2cccc([C@@H]3C[C@H]3N)c2)cn1 (relative stereo) [Example 65, 3-(trans-2-aminocyclopropyl)-N-(1-tert-butyl-1H-pyrazol-4-yl)benzamide dihydrochloride]	< 5.00	< 5.00
Cc1c(NC(=O)c2cccc([C@@H]3C[C@H]3NCC(C)(C)C)c2)cnn1C (relative stereo) [Example 156, 3-(trans-2-((2,2-dimethylpropyl)amino)cyclopropyl)-N-(1,5-dimethyl-1H-pyrazol-4-yl)benzamide dihydrochloride]	< 5.00	< 5.00
CC(C)(C)n1cc(NC(=O)c2cccc([C@@H]3C[C@H]3NCC3CC3)c2)cn1 (relative stereo) [Example 78, N-(1-tert-butyl-1H-pyrazol-4-yl)-3-(trans-2-((cyclopropylmethyl)amino)cyclopropyl)benzamide dihydrochloride]	< 5.00	< 5.00
Cc1nnc(NC(=O)c2cc(F)ccc2[C@@H]2C[C@H]2NC2CCN(C3CC3)CC2)s1 (relative stereo) [Example 273, 2-(trans-2-((1-cyclopropylpiperidin-4-yl)amino)cyclopropyl)-5-fluoro-N-(5-methyl-1,3,4-thiadiazol-2-yl)benzamide dihydrochloride]	< 5.00	< 5.00
O=C(Nc1ccc(N2CCOCC2)nc1)c1cccc([C@@H]2C[C@H]2NCC2CC2)c1 (relative stereo) [Example 134, 3-(trans-2-((cyclopropylmethyl)amino)cyclopropyl)-N-(6-(morpholin-4-yl)pyridin-3-yl)benzamide tris(trifluoroacetate)]	< 5.00	< 5.00
CC(C)(C)n1cc(NC(=O)c2cccc([C@@H]3C[C@H]3NC3CCOCC3)c2)cn1 (relative stereo) [Example 194, N-(1-tert-butyl-1H-pyrazol-4-yl)-3-(trans-2-(tetrahydro-2H-pyran-4-ylamino)cyclopropyl)benzamide dihydrochloride]	< 5.00	< 5.00
O=C(Nc1ccc(F)cc1)c1cccc([C@@H]2C[C@H]2NC2CCOCC2)c1 (relative stereo) [Example 207, N-(4-fluorophenyl)-3-(trans-2-(tetrahydro-2H-pyran-4-ylamino)cyclopropyl)benzamide hydrochloride]	< 5.00	< 5.00
COc1ccc([C@@H]2C[C@H]2NCC2CC2)cc1C(=O)Nc1nnc(C)s1 (relative stereo) [Example 159, 5-(trans-2-((cyclopropylmethyl)amino)cyclopropyl)-2-methoxy-N-(5-methyl-1,3,4-thiadiazol-2-yl)benzamide dihydrochloride]	< 5.00	< 5.00
O=C(Nc1nc(O)c2c(n1)CCCC2)c1cccc([C@@H]2C[C@H]2NCC2CC2)c1 (relative stereo) [Example 150, 3-(trans-2-((cyclopropylmethyl)amino)cyclopropyl)-N-(4-hydroxy-5,6,7,8-tetrahydroquinazolin-2-yl)benzamide trifluoroacetate]	< 5.00	< 5.00
